Test results from patent EP3771713A1 (priority 2019, dated 2021).

By UniProt entry, the sequences of proteins in these tests, tags left out.
UniProt P21554, whole entry, looked up: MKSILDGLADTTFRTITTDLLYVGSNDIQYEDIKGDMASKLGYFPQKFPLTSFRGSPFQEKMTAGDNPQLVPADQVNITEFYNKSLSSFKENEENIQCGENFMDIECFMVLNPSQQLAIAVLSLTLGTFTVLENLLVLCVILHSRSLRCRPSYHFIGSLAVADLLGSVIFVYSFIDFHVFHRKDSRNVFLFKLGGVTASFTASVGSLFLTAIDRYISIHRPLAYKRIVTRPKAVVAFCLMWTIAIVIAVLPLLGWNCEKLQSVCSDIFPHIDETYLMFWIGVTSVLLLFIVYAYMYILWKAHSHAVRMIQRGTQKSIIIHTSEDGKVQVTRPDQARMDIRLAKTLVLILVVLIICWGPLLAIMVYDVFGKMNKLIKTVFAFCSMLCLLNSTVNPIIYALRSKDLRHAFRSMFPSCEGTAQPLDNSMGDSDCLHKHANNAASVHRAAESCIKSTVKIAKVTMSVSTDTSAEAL
UniProt P34972, whole entry, looked up: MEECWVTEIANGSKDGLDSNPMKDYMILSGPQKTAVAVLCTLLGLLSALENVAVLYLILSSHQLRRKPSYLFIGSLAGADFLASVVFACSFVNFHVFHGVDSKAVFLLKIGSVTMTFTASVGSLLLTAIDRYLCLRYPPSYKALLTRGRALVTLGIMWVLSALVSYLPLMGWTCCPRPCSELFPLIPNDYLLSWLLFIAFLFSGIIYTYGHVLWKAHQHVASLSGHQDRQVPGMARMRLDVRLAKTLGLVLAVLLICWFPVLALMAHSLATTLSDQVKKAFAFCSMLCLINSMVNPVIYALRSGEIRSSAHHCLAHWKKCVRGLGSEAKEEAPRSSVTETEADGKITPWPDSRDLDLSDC

What was measured:
[1] = tested on: murine microglial cell line N9; assay: Microglia activation: LPS-activated N9 cells, M1/M2 markers (Griess reaction, western blot); type: cell-based; conditions: 100 ng/mL LPS, 1-5 µM compound, 24 h
hCB1R = hCB1R (Homo sapiens, UniProt P21554); assay: Radioligand binding ([^3H]CP 55,940) at hCB1R, membranes of CHO cells; conditions: 10 µM of the compound
hCB2R = hCB2R (Homo sapiens, UniProt P34972); conditions: U266 cells, 50 µM, 2 h, compared to the vehicle

SMILES: CCOc1ccc(Cc2nc3cc(C(=O)N(CC)CC)ccc3n2CCC(C)C)cc1
- NO release / nitrite accumulation [1]: reduced
- IL1β release ([1]; M1 marker): significantly decrease
- iNOS expression ([1]; M1 marker): significantly decrease
- TGFβ2 expression ([1]; M2 marker): not reduced
- TREM2 expression ([1]; M2 marker): not reduced
- [^3H]CP 55,940 displ. @10 µM hCB1R (hCB1R): 24%
- MIF gene expression (hCB2R): reduced
- STAT-3 gene expression (hCB2R): reduced
